Data on one molecule can be found in paper PMC6881293, “Nanomolar-potency ‘co-potentiator’ therapy for cystic fibrosis caused by a defined subset of minimal function CFTR mutants” (Scientific Reports, 2019).

The chains behind the UniProt entries cited, without tags or fusion partners.
UniProt P13569, whole entry N1303K: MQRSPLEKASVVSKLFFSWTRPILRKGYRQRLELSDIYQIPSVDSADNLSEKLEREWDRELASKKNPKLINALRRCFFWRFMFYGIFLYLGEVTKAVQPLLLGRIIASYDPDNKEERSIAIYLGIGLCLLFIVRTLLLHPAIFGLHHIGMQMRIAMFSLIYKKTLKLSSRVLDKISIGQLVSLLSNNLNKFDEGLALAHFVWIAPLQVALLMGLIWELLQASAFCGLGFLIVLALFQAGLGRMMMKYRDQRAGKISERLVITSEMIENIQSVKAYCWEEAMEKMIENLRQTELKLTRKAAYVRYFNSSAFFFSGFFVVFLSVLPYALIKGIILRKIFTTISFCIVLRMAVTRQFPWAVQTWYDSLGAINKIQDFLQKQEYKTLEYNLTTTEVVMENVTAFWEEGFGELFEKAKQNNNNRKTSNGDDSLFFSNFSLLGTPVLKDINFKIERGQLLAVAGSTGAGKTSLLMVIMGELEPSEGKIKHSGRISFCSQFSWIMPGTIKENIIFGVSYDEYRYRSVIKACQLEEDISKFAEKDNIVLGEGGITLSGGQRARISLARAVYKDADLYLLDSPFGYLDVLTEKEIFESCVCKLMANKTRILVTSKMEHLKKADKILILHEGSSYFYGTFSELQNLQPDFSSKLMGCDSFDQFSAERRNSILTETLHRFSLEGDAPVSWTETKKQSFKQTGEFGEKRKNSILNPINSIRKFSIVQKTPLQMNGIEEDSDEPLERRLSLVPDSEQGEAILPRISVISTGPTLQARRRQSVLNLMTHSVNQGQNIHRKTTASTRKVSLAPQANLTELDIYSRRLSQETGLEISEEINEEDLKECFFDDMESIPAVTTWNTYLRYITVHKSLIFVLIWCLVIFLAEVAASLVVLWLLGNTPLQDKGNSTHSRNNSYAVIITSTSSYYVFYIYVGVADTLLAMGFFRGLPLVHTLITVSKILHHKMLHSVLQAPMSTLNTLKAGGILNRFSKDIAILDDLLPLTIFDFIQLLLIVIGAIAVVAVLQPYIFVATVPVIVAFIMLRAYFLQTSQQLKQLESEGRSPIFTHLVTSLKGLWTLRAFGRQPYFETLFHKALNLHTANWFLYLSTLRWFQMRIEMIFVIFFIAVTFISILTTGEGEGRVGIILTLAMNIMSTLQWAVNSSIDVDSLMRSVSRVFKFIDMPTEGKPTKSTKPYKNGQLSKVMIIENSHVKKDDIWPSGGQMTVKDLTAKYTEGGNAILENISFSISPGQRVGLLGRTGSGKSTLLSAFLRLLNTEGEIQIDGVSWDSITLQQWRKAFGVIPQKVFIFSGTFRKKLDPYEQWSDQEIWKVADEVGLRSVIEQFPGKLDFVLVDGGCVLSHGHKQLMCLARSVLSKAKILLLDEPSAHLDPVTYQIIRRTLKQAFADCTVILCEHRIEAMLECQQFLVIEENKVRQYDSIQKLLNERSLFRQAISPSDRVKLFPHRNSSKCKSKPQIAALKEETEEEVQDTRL

The test addresses N1303K-CFTR (Homo sapiens, UniProt P13569, N1303K). The settings on record: 16HBE-N1303Kge cells; 20 µM compound after 20 µM forskolin and 5 µM VX-770.

In the case of `COc1ccc2cc3c(N)nn(C(=O)c4cc(-c5cccs5)nc5ccccc45)c3nc2c1`, the “CFTRinh-172-inhibitable short-circuit current response” value is reported as ~ 10 μA/cm^2.
